Laboratory results from article PMC6168434 (European journal of medicinal chemistry, 2018).

Tested on: human proteasomes (hCP) hβ2
Details: comparing 2 to 4c, Jurkat lysate

## CC(C)[C@H](NC(=O)[C@@H]1OC(=O)[C@H]1C1CCCC1)C(=O)N[C@H](C(=O)OCc1ccccc1)C(C)C [Compound 4c]
  improvement of inhibitory selectivity of hβ5 over hβ2, factor: 4
